Literature values as cited in US7595398B2, “N-(5-membered aromatic ring)-amido anti-viral compounds” (SmithKline Beecham Corporation, priority 2005, dated 2009).

Details: human, in vivo; cited from earlier work

NC(=O)c1ncn([C@@H]2O[C@H](CO)[C@@H](O)[C@H]2O)n1 [Ribavirin]
teratogenicity and embryotoxicity: both teratogenic and embryotoxic
